“And” between values parts separate entries of the source, which are not always exact repeats. Identical values can stand only once.
What was measured:
[1] = tested on: TA98 strain; experiment: Bacterial reverse mutation assay with 6-well plate, TA98; settings: for Reverse mutation colony Number per well / Background lawn / Reverse mutation colony Mean: TA98-S9
[2] = tested on: TA100 strain; experiment: Bacterial reverse mutation assay with 6-well plate, TA100

SMILES: CC(C)N(CCCCCC(=O)NS(C)(=O)=O)c1nnc(-c2ccccc2)c(-c2ccccc2)n1
- Reverse mutation colony Number per well ([1]; 16 µg/well): 5
- Background lawn ([1]; 31 µg/well): T0
- Reverse mutation colony Mean ([1]; 31 µg/well): 8.5
- Reverse mutation colony Number per well ([1]; 31 µg/well): 8 and 9
- Background lawn ([1]; 63 µg/well): T0
- Reverse mutation colony Mean ([1]; 63 µg/well): 5.5
- Reverse mutation colony Number per well ([1]; 63 µg/well): 4 and 7
- Background lawn ([1]; 125 µg/well): T0
- Reverse mutation colony Mean ([1]; 125 µg/well): 6.5
- Reverse mutation colony Number per well ([1]; 125 µg/well): 8 and 5
- Background lawn ([1]; 250 µg/well): T0
- Reverse mutation colony Mean ([1]; 250 µg/well): 6.5
- Reverse mutation colony Number per well ([1]; 250 µg/well): 7 and 6
- Background lawn ([1]; 500 µg/well): T0
- Reverse mutation colony Mean ([1]; 500 µg/well): 5.5
- Reverse mutation colony Number per well ([1]; 500 µg/well): 5 and 6
- Background lawn ([1]; 1000 µg/well): T0
- Reverse mutation colony Mean ([1]; 1000 µg/well): 5.5
- Reverse mutation colony Number per well ([1]; 1000 µg/well): 5 and 6
- final concentration at which a reduction in background lawn was observed ([1]; TA98 strain, ±S9): no abnormal background lawn was observed
- final concentration at which non-interfering precipitate was observed ([1]; TA98 strain, ±S9): 1000 µg per well
- genotoxicity test result ([1]; TA98 strain, ±S9, colonies did not reach twice negative control): negative
- Background lawn ([2]; TA100+S9, 8 µg/well): T0
- Reverse mutation colony Mean ([2]; TA100+S9, 8 µg/well): 29.5
- Reverse mutation colony Number per well ([2]; TA100+S9, 8 µg/well): 29 and 30
- Background lawn ([2]; TA100+S9, 16 µg/well): T0
- Reverse mutation colony Mean ([2]; TA100+S9, 16 µg/well): 27.5
- Reverse mutation colony Number per well ([2]; TA100+S9, 16 µg/well): 28 and 27
- Background lawn ([2]; TA100+S9, 31 µg/well): T0
- Reverse mutation colony Mean ([2]; TA100+S9, 31 µg/well): 29.5
- Reverse mutation colony Number per well ([2]; TA100+S9, 31 µg/well): 29 and 30
- Background lawn ([2]; TA100+S9, 63 µg/well): T0
- Reverse mutation colony Mean ([2]; TA100+S9, 63 µg/well): 27.0
- Reverse mutation colony Number per well ([2]; TA100+S9, 63 µg/well): 26 and 28
- Background lawn ([2]; TA100+S9, 125 µg/well): T0
- Reverse mutation colony Mean ([2]; TA100+S9, 125 µg/well): 27.5
- Reverse mutation colony Number per well ([2]; TA100+S9, 125 µg/well): 28 and 27
- Background lawn ([2]; TA100+S9, 250 µg/well): T0
- Reverse mutation colony Mean ([2]; TA100+S9, 250 µg/well): 25.5
- Reverse mutation colony Number per well ([2]; TA100+S9, 250 µg/well): 25 and 26
- Background lawn ([2]; TA100+S9, 500 µg/well): T0
- Reverse mutation colony Mean ([2]; TA100+S9, 500 µg/well): 22.5
- Reverse mutation colony Number per well ([2]; TA100+S9, 500 µg/well): 23 and 22
- Background lawn ([2]; TA100+S9, 1000 µg/well): T0
- Reverse mutation colony Mean ([2]; TA100+S9, 1000 µg/well): 22.0
- Reverse mutation colony Number per well ([2]; TA100+S9, 1000 µg/well): 24 and 20
- Background lawn ([2]; TA100-S9, 8 µg/well): T0
- Reverse mutation colony Mean ([2]; TA100-S9, 8 µg/well): 23.5
- Reverse mutation colony Number per well ([2]; TA100-S9, 8 µg/well): 34 and 31
- Background lawn ([2]; TA100-S9, 16 µg/well): T0
- Reverse mutation colony Mean ([2]; TA100-S9, 16 µg/well): 29.5
- Reverse mutation colony Number per well ([2]; TA100-S9, 16 µg/well): 29 and 30
- Background lawn ([2]; TA100-S9, 31 µg/well): T0
- Reverse mutation colony Mean ([2]; TA100-S9, 31 µg/well): 28.0
- Reverse mutation colony Number per well ([2]; TA100-S9, 31 µg/well): 27 and 29
- Background lawn ([2]; TA100-S9, 63 µg/well): T0
- Reverse mutation colony Mean ([2]; TA100-S9, 63 µg/well): 27.5
- Reverse mutation colony Number per well ([2]; TA100-S9, 63 µg/well): 28 and 27
- Background lawn ([2]; TA100-S9, 125 µg/well): T0
- Reverse mutation colony Mean ([2]; TA100-S9, 125 µg/well): 27.5
- Reverse mutation colony Number per well ([2]; TA100-S9, 125 µg/well): 26 and 29
- Background lawn ([2]; TA100-S9, 250 µg/well): T0
- Reverse mutation colony Mean ([2]; TA100-S9, 250 µg/well): 28.0
- Reverse mutation colony Number per well ([2]; TA100-S9, 250 µg/well): 27 and 29
- Background lawn ([2]; TA100-S9, 500 µg/well): T0
- Reverse mutation colony Mean ([2]; TA100-S9, 500 µg/well): 24.0
- Reverse mutation colony Number per well ([2]; TA100-S9, 500 µg/well): 24
- Background lawn ([2]; TA100-S9, 1000 µg/well): T0
- Reverse mutation colony Mean ([2]; TA100-S9, 1000 µg/well): 22.5
- Reverse mutation colony Number per well ([2]; TA100-S9, 1000 µg/well): 21 and 24
- final concentration at which a reduction in background lawn was observed ([2]; TA100 strain, ±S9): no abnormal background lawn was observed
- final concentration at which non-interfering precipitate was observed ([2]; TA100 strain, ±S9): 1000 µg per well
- genotoxicity test result ([2]; TA100 strain, ±S9, colonies did not reach twice negative control): negative
